# Source: ChEMBL document CHEMBL1909046, “DrugMatrix in vitro pharmacology data”
# Legend:
# [1] = DRUGMATRIX: Glutamate, NMDA, Phencyclidine radioligand binding (ligand: [3H] TCP); details: strain Wistar, Cerebral cortex
# [2] = DRUGMATRIX: Phosphodiesterase PDE3 enzyme inhibition (substrate: [3H]cAMP + cAMP); details: platelet
# [3] = DRUGMATRIX: Imidazoline I2, Central radioligand binding (ligand: [3H] Idazoxan); details: strain Wistar, Cerebral cortex
# Cytochrome P450 3A4 = Cytochrome P450 3A4 (Homo sapiens, UniProt P08684); assay: DRUGMATRIX: CYP450, 3A4 enzyme inhibition (substrate: 7-Benzyloxy-4-(trifluoromethyl)-coumarin); details: bti-tn-5b1-4; further: in other assays of this panel Not Active means under 50% inhibition at 10 µM
# [4] = DRUGMATRIX: Glutamate, Kainate radioligand binding (ligand: [3H] Kainic acid); details: strain Wistar, Brain
# [5] = DRUGMATRIX: Sigma2 radioligand binding (ligand: [3H] Ifenprodil); details: strain Wistar, Brain
# [6] = DRUGMATRIX: beta-Lactamase enzyme inhibition (substrate: Nitrocefin)
# [7] = DRUGMATRIX: Glutamate, AMPA radioligand binding (ligand: [3H] AMPA); details: strain Wistar, Cerebral cortex
# [8] = DRUGMATRIX: GABAA, Muscimol, Central radioligand binding (ligand: [3H] Muscimol); details: strain Wistar, Brain
# [9] = DRUGMATRIX: Glutamate, NMDA, Agonism radioligand binding (ligand: [3H] CGP-39653); details: strain Wistar, Cerebral cortex
# [10] = DRUGMATRIX: GABAA, Chloride Channel, TBOB radioligand binding (ligand: [3H] TBOB); details: strain Wistar, Cerebral cortex
# [11] = DRUGMATRIX: GABAA, Flunitrazepam, Central radioligand binding (ligand: [3H] Flunitrazepam); details: strain Wistar, Brain
# [12] = DRUGMATRIX: Purinergic P2X radioligand binding (ligand: [3H] alpha, beta-Methylene-ATP); details: strain New Zealand albino, Urinary bladder
# [13] = DRUGMATRIX: Serotonin (5-Hydroxytryptamine) 5-HT3 radioligand binding (ligand: [3H] GR-65630); details: hek293
# [14] = DRUGMATRIX: Sodium Channel, Site 2 radioligand binding (ligand: [3H] Batrachotoxin); details: strain Wistar, Brain
# [15] = DRUGMATRIX: Sodium/nucleoside co-transporter radioligand binding (ligand: nitrobenzylthioinosine); details: strain Dunkin-Hartley, Cerebral cortex
# [16] = DRUGMATRIX: Phorbol Ester radioligand binding (ligand: [3H] PDBu); details: strain ICR, Brain
# [17] = DRUGMATRIX: ATPase, Na+/K+ enzyme inhibition (substrate: ATP); details: Heart
smiles,measurement,setting,value
CN(C(=O)Cc1ccc(Cl)c(Cl)c1)C1CCC2(CCCO2)CC1N1CCCC1 (stereo not given),IC50,[1],Not Active
same,Ki,[1],Not Active
same,IC50,[2],Not Active
same,Ki,[2],Not Active
same,IC50,[3],Not Active
same,Ki,[3],Not Active
same,IC50,Cytochrome P450 3A4,Not Active
same,Ki,Cytochrome P450 3A4,Not Active
same,IC50,[4],Not Active
same,Ki,[4],Not Active
same,IC50,[5],Not Active
same,Ki,[5],Not Active
same,IC50,[6],Not Active
same,Ki,[6],Not Active
same,IC50,[7],Not Active
same,Ki,[7],Not Active
same,IC50,[8],Not Active
same,Ki,[8],Not Active
same,IC50,[9],Not Active
same,Ki,[9],Not Active
same,IC50,[10],Not Active
same,Ki,[10],Not Active
same,IC50,[11],Not Active
same,Ki,[11],Not Active
same,IC50,[12],Not Active
same,Ki,[12],Not Active
same,IC50,[13],Not Active
same,Ki,[13],Not Active
same,IC50,[14],3.09 µM
same,IC50,[15],Not Active
same,Ki,[15],Not Active
same,IC50,[16],Not Active
same,Ki,[16],Not Active
same,IC50,[17],Not Active
same,Ki,[17],Not Active
